PubChem BioAssay AID938 (National Center for Advancing Translational Sciences (NCATS), 2007)
Shown are results outside the selection of hits, which stands elsewhere. Results filed as inconclusive are left out. Activity calls are given as the source filed them. Calls follow the shape of the dose curve; as a rule, active = well fitted activation curve with a large enough effect; inconclusive = small, poorly fitted or top-dose-only effect; inactive = no such curve, though single readings can be large or run the other way.

Assay: qHTS Assay for Agonists of the Thyroid Stimulating Hormone Receptor: Activators of Intracellular cAMP Concentrations in Parental HEK 293; also: % of control where 0% means no effect; nearly all actives have a fitted effect of over 55% in size
Details: parental HEK293 CNG cAMP sensor, membrane potential fluorescence; at 25.6 µM (top of the series)
Source text: NIH Chemical Genomics Center [NCGC]
NIH Molecular Libraries Screening Centers Network [MLSCN]
PI Name: Dr. Marvin Gershengorn
This cell based assay utilized a cyclic nucleotide gated ion channel (CNG) as a biosensor for cAMP induction. HEK 293 cells stably expressing the modified CNG were purchased from BD biosciences (http://www.atto.com/products/actone/features_benefits.shtml) . Stimulation of cAMP production causes the CNG to open and subsequent membrane depolarization to occur. A fluorescent membrane potential dye (BD biosciences) was utilized to detect cAMP stimulation in cells.
The cells were maintained in DMEM medium (Invitrogen) containing 10 % FBS (Hyclone), 100 units/ml Penicillin, 100 ug/ml Streptomycin (Invitrogen), and 250 ug/ml Geneticin (Invitrogen) and 1 ug/ml Puromycin (Invitrogen) at 37C in 5% CO2. […]
High Throughput Screening. […] 23 nl/well compound or control was then added to the assay plates, which were incubated for additional 30 min before reading a Envision fluorescence plate reader (Perkin Elmer) in bottom-read mode for fluorescence intensity (emission at 590 nm).
Keywords: cAMP, CNG Ion Channel, quantitative high throughput screening, qHTS, HTS, probe identification, CNG, cAMP, cyclic nucleotide gated ion channel PubChem

Compound | activation
c1ccc2[nH]c(-c3cscn3)nc2c1 | inactive: 1.33%
